Test system: patients evaluated for sleep disturbances after oral surgery
Assay: Study A: single dose after oral surgery, ibuprofen, diphenhydramine and combination vs placebo
Conditions: 5-point scale 0=did not fall asleep to 4=very easy, ibuprofen 400 mg, diphenhydramine HCl 50 mg

## CN(C)CCOC(c1ccccc1)c1ccccc1 [DPH, 2-(diphenylmethoxy)-N,N-dimethylethylamine]
  Ease of Falling Asleep: 1.06 A

Reference: patent publication US8883849B2, “Treatment of sleep disturbances” (Wyeth LLC, priority 2001, dated 2014)
